The chains behind the UniProt entries cited, without tags or fusion partners.
UniProt O75874, whole entry R132H: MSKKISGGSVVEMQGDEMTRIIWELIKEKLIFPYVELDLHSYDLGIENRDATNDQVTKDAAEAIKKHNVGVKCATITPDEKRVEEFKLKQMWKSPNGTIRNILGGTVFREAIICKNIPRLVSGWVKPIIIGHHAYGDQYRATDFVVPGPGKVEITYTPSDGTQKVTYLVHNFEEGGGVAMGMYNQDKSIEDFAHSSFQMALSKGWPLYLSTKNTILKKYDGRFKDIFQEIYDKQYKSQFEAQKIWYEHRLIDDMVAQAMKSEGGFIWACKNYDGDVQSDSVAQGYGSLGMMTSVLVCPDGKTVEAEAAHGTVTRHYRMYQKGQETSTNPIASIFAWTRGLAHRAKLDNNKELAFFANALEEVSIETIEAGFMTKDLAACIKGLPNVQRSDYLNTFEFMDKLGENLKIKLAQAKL

According to US10138226B2, “Benzimidazol-2-amines as MIDH1 inhibitors” (Bayer Pharma Aktiengesellschaft, priority 2014, dated 2018):

Target: IDH1 R132H enzyme (Homo sapiens (Human), UniProt O75874, R132H)
Test: Mutant IDH1 R132H biochemical assay
Conditions: NADPH consumption, luminescent readout; 1.5 nM enzyme, 250 μM α-KG, 1 μM NADPH, 32° C., 30 minutes; test range 0.002-10 μM
Procedure: mIDH1 catalyzes the NADPH-dependent reduction of alpha-ketoglutarate (α-KG) to (2R)-2-hydroxyglutarate (2-HG). NADPH consumption was measured by luminescent readout.
The biochemical reactions were performed at 32° C. in 384-well plates using a reaction volume of 41 μl and the following assay buffer conditions: 50 mM Tris pH 7.5, 100 mM NaCl, 20 mM MgCl2, 0.05% BSA, 0.01% Brij, 1 μM NADPH, and 250 μM α-KG. […] Test compounds were used in a concentration range between 0.002 and 10 μM. The final DMSO concentration was 2.4%.
The reaction was incubated for 30 minutes, then 40 μl of detection mix (0.75 μg/ml Luciferase, 0.02 U/ml Oxidoreductase, 4 μg/ml FMN, 2 μl/ml Decanal/Ethanol, 50 mM Tris pH 7.5, 0.5% Glycerin, 0.01% Tween-20, 0.05% BSA) was added. Luminescence was measured on a luminescent reader (10 seconds measuring time, 1 second integration period, 30% sensitivity). The decrease in luminescence is proportional to mIDH1 activity. IC50 values are determined by interpolation from plots of relative luminescence versus inhibitor concentration.

Row | SMILES | IC50
1 | C[C@@H]1C[C@H](n2c(Nc3ccc(OC(F)(F)F)cc3)nc3ccc(C(=O)NCC(=O)O)cc32)CC(C)(C)C1 (racemic) [Example 2-12, (±) N-[(2-{[4-(trifluoromethoxy)phenyl]amino}-1-[(cis)-3,3,5-trimethylcyclohexyl]-1H-benzimidazol-6-yl)carbonyl]glycine] | ≥ 10000 nM
2 | C[C@@H]1C[C@H](n2c(Nc3ccc(OC(F)(F)F)cc3)nc3ccc(C(=O)N4CCCCC4)cc32)CC(C)(C)C1 (racemic) [Example 2-17, (±) piperidin-1-yl(2-{[4-(trifluoromethoxy)phenyl]amino}-1-[(cis)-3,3,5-trimethylcyclohexyl]-1H-benzimidazol-6-yl)methanone] | 580 nM
3 | C[C@@H]1C[C@H](n2c(Nc3ccc(OC(F)(F)F)cc3)nc3ccc(C(=O)NC4CCS(=O)(=O)CC4)cc32)CC(C)(C)C1 (racemic) [Example 2-18, (±) N-(1,1-dioxidotetrahydro-2H-thiopyran-4-yl)-2-{[4-(trifluoromethoxy)phenyl]amino}-1-[(cis)-3,3,5-trimethylcyclohexyl]-1H-benzimidazole-6-carboxamide] | 5300 nM
4 | COC(=O)c1ccc2nc(Nc3ccc(OC(F)(F)F)cc3)n([C@H]3C[C@@H](C)CC(C)(C)C3)c2c1 (single isomer, unassigned; enantiomer a) [Example 2-1-1, methyl 2-{[4-(trifluoromethoxy)phenyl]amino}-1-[(cis)-3,3,5-trimethylcyclohexyl]-1H-benzimidazole-6-carboxylate, enantiomer A] | 310 nM
5 | CCN(C)C(=O)c1ccc2nc(Nc3ccc(OC(F)(F)F)cc3)n([C@H]3C[C@@H](C)CC(C)(C)C3)c2c1 (single isomer, unassigned; enantiomer a) [Example 2-6-1, N-ethyl-N-methyl-2-{[4-(trifluoromethoxy)phenyl]amino}-1-[(cis)-3,3,5-trimethylcyclohexyl]-1H-benzimidazole-6-carboxamide, enantiomer A] | 150 nM
6 | CCN(CC)C(=O)c1ccc2nc(Nc3ccc(OC(F)(F)F)cc3)n([C@H]3C[C@@H](C)CC(C)(C)C3)c2c1 (single isomer, unassigned; enantiomer a) [Example 2-7-1, N,N-diethyl-2-{[4-(trifluoromethoxy)phenyl]amino}-1-[(cis)-3,3,5-trimethylcyclohexyl]-1H-benzimidazole-6-carboxamide, enantiomer A] | 240 nM
7 | C[C@@H]1C[C@H](n2c(Nc3ccc(OC(F)(F)F)cc3)nc3ccc(C(=O)N4CCOCC4)cc32)CC(C)(C)C1 (single isomer, unassigned; enantiomer a) [Example 2-16-1, morpholin-4-yl(2-{[4-(trifluoromethoxy)phenyl]amino}-1-[(cis)-3,3,5-trimethylcyclohexyl]-1H-benzimidazol-6-yl)methanone, enantiomer A] | 160 nM
8 | C[C@@H]1C[C@H](n2c(Nc3ccc(OC(F)(F)F)cc3)nc3ccc(C(=O)N4CCCCC4)cc32)CC(C)(C)C1 (single isomer, unassigned; enantiomer a) [Example 2-17-1, piperidin-1-yl(2-{[4-(trifluoromethoxy)phenyl]amino}-1-[(cis)-3,3,5-trimethylcyclohexyl]-1H-benzimidazol-6-yl)methanone, enantiomer A] | 1100 nM
9 | COC(=O)c1ccc2nc(Nc3ccc(OC(F)(F)F)cc3)n([C@H]3C[C@@H](C)CC(C)(C)C3)c2c1 (single isomer, unassigned; enantiomer b) [Example 2-1-2, methyl 2-{[4-(trifluoromethoxy)phenyl]amino}-1-[(cis)-3,3,5-trimethylcyclohexyl]-1H-benzimidazole-6-carboxylate, enantiomer B] | 50 nM
10 | C[C@@H]1C[C@H](n2c(Nc3ccc(OC(F)(F)F)cc3)nc3ccc(C(=O)O)cc32)CC(C)(C)C1 (single isomer, unassigned; enantiomer b) [Example 2-3-2, 2-{[4-(trifluoromethoxy)phenyl]amino}-1-[(cis)-3,3,5-trimethylcyclohexyl]-1H-benzimidazole-6-carboxylic acid, enantiomer B] | 3400 nM
11 | CCN(C)C(=O)c1ccc2nc(Nc3ccc(OC(F)(F)F)cc3)n([C@H]3C[C@@H](C)CC(C)(C)C3)c2c1 (single isomer, unassigned; enantiomer b) [Example 2-6-2, N-ethyl-N-methyl-2-{[4-(trifluoromethoxy)phenyl]amino}-1-[(cis)-3,3,5-trimethylcyclohexyl]-1H-benzimidazole-6-carboxamide, enantiomer B] | 400 nM
